This is an account of results in ChEMBL document CHEMBL4808148, “HDAC6 screening dataset using tau-based substrate in an enzymatic assay yields selective inhibitors and activators” (2021).

The list shows a part of the results, in another mix than the full data.

For the experiment, the target named is T1, Protein deacetylase HDAC6 (Homo sapiens) (UniProt Q9UBN7).
T1 sequence (whole entry): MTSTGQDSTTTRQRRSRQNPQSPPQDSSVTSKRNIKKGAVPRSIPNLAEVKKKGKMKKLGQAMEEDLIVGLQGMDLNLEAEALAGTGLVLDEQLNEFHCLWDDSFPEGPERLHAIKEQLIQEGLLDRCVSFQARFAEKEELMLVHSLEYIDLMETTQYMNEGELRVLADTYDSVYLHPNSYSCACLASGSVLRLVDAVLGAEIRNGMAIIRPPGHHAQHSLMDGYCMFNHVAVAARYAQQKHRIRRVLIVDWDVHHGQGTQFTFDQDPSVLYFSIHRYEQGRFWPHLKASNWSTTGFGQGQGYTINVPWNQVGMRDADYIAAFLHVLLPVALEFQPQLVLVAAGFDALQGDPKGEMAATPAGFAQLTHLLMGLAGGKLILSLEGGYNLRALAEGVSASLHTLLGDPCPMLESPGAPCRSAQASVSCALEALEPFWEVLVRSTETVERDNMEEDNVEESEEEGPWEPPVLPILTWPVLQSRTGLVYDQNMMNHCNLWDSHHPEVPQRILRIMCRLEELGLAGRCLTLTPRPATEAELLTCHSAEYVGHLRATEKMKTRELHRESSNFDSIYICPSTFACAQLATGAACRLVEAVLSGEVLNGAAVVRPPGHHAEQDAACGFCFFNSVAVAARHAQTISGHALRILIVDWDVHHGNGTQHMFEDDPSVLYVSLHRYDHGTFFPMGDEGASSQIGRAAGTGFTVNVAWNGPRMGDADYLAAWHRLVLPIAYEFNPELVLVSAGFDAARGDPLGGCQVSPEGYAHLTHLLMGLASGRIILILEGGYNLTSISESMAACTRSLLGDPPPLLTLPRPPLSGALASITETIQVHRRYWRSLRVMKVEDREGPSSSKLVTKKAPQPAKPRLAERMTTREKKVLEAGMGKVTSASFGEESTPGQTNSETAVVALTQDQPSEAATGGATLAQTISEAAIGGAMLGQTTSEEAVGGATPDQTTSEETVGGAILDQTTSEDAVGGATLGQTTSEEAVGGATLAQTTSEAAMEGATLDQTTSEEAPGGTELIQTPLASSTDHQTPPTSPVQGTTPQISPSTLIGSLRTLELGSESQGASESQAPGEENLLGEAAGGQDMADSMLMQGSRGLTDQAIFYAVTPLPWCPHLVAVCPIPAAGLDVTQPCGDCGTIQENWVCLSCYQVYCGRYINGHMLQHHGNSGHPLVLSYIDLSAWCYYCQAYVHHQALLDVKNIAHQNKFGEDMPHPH
The note with it: at 10 µM.
Take `CN(CCCl)CCCl`: the inhibition (commonly the change of the read-out against control, counted positive when it falls) is 6.33%.
